Values quoted from earlier work as cited in patent US20260306502A1, “MITOCHONDRIAL UNCOUPLERS FOR TREATMENT OF METABOLIC DISEASES AND CANCER” (Mito Biopharma, LLC, priority 2022, published 2026).

What was measured:
C57Bl6 mice = details: DNP, US EPA; cited from earlier work
CD-1 mice = details: DNP, reportedly; cited from earlier work
[1] = concentration (in cells)/dosage (in vivo); cited from earlier work

Compound: O=[N+]([O-])c1ccc(O)c([N+](=O)[O-])c1 [DNP, 2,4-dinitrophenol]
- LD50/MED ratio (C57Bl6 mice): 30
- NOAEL/MED ratio (CD-1 mice): less than 3
- ratio of concentration/dosage between toxicity and efficacy [1]: about 3
